Protein sequences, listed by entry. Tags and fused reporters are not part of them. Residues count along the entry.
UniProt P35372, 1-314 isoform P35372-14: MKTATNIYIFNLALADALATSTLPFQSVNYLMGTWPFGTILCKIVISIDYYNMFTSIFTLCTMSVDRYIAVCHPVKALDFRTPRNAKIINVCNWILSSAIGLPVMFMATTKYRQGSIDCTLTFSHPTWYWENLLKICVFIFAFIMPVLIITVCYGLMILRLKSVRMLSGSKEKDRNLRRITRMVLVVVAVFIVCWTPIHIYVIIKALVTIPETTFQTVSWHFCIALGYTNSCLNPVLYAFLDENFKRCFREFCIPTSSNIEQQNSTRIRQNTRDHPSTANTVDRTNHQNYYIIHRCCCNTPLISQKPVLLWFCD

In US6524805B1 (priority 1997, dated 2003):

Columns and labels:
mu3 opiate receptor [1] = target: T1, mu3 opiate receptor (Homo sapiens, UniProt P35372); assay: biochemical; settings: Displacement of [3H]-DHM IC50
mu3 opiate receptor [2] = target: T1, mu3 opiate receptor; format: cell-based; set-up: aliquots of membrane suspensions from human granulocytes and lung non-small cell carcinoma; from tissue; host or cells: human granulocytes, human monocytes, normal lung, non-small cell lung carcinoma tissue, vascular tissue

Compound | IC50 (mu3 opiate receptor [1]) [nM] | stimulation of intracellular calcium level increases in endothelial cells (mu3 opiate receptor [2])
CC(C)C[C@@H](NC(=O)[C@H](Cc1ccccc1)NC(=O)CNC(=O)[C@@H](C)NC(=O)[C@@H](N)Cc1ccc(O)cc1)C(=O)O [DADLE, (D-Ala^2, Leu^5)-enkephalin] | > 1000 | –
CC[C@H](C)[C@H](NC(=O)[C@H](CCCNC(=N)N)NC(=O)[C@H](CCCNC(=N)N)NC(=O)[C@H](CC(C)C)NC(=O)[C@H](Cc1ccccc1)NC(=O)CNC(=O)CNC(=O)[C@@H](N)Cc1ccc(O)cc1)C(=O)N[C@@H](CCCNC(=N)N)C(=O)N1CCC[C@H]1C(=O)N[C@@H](CCCCN)C(=O)N[C@@H](CC(C)C)C(=O)N[C@@H](CCCCN)C(=O)N[C@@H](Cc1c[nH]c2ccccc12)C(=O)N[C@@H](CC(=O)O)C(=O)N[C@@H](CC(N)=O)C(=O)N[C@@H](CCC(N)=O)C(=O)O [Dynorphin 1-17] | – | did not stimulate
